In patent US9637519B2, “Peptide for inducing mast cell-specific apoptosis and use thereof” (CAREGEN CO., LTD., priority 2013, dated 2017):

Legend:
[1] = test system: RBL-2H3 rat mast cell lines; details: inactivation state and activation state through IgE and HSA treatment
Procedure: First, RBL-2H3 rat mast cell lines (Korean Cell Line Bank, Korea) were cultured in Dulbecco's modified Eagle's medium (DMEM, Gibco, U.S.A.) supplemented with 10% fetal bovine serum (FBS, Sigma) using a flask for tissue culture (SPL, Korea). The cultured cell lines were detached from the bottom of the culture container using a 1% trypsin solution, and then only cell deposits were collected by centrifugation. The cell deposits were again suspended in DMEM culture liquid, placed in each well of a 6-well plate for tissue culture (SPL, Korea) at 1×10^5 cells per well, and then cultured for 24 h under conditions of 37° C. and 5% CO2. After 24 h, the medium was exchanged with the same culture liquid. […] After the completion of the culture, the culture supernatant fluid was removed, the cultured cell lines were detached from the bottom of the culture container using a 1% trypsin solution, and then only cell precipitates were collected by centrifugation. The cells were stained using an Annexin V-PI staining kit (BD pharmigen), and then FL1 and FL2 intensities were measured using flow cytometry, FACS. Annexin V-positive apoptotic cells were counted (see FIG. 2a).

beta-hexosaminidase = details: IgE 1 μg/ml sensitized, HSA 1 μg/ml stimulated; peptide 1 and 10 μg/ml; absorbance 405 nm
Procedure: In the culture of RBL-2H3 cells sensitized by IgE treatment (1 μg/ml) for 16 h, the existing culture medium was removed and exchanged with a tyrode buffer. […] In addition, in order to measure the activity of beta-hexosaminidase, the degree of color development after a reaction with a substrate, p-N-acetyl-glucosamine (NAG; SIGMA, USA) was determined by measuring the absorbance at 405 nm using a spectrophotometer (see FIG. 3b).

Trp-Val-Pro-Tyr-Gln-Ala-Arg-Val-Pro-Tyr-Pro-Arg (WVPYQARVPYPR; Sema3A peptide 1) [peptide of the present invention]
activity to induce mast cell-specific apoptosis, activated versus inactivated state [1]: more remarkable in the activated mast cells | beta-hexosaminidase secreted due to the activation of mast cells (beta-hexosaminidase): effects of inhibiting histamine and beta-hexosaminidase
